For series [1] the following is noted: cited from earlier work.

Read-outs that look alike come from different tables or passages of the source.

The source of these data is patent US20250352554A1 (Neurelis, Inc., priority 2024, published 2025).

Consider `Cc1cc2c(s1)Nc1ccccc1N=C2N1CCN(C)CC1` [olanzapine, 2-methyl-4-(4-methyl-1-piperazinyl)-10H-thieno[2,3-b][1,5]benzodiazepine], for which the “compatibility with individual solvents (degradation products, color changes)” value (Vitamin E, benzyl alcohol, ethanol, two weeks at 40° C.) is given as “significant incompatibilities”. Further, where the note is “approximately 5 mg/mL in dimethylacetamide or PEG 400, two months at 40° C.”, the “USP Related Compounds B and C” value is given as “did not significantly increase”. Moreover, the Cmax (commonly the maximum level reached in the sampled fluid or tissue) in series [1] (5 mg oral dose) was 7 ng/mL; in series [1] (10 mg oral dose) it was 14 ng/mL.
